Laboratory results reported in PMC4869123 (Scientific Reports, 2016).
pIC50: −log10 of the molar value. Entries after “also recorded” stand apart in the source; their conditions may differ.

Sequences of proteins named here, by UniProt entry; tags and fusion partners are left off. Residues count along the entry.
UniProt Q16552, 24-155: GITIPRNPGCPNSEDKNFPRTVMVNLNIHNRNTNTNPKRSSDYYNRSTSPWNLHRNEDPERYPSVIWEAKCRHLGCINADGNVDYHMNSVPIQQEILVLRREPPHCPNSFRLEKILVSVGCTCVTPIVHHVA
UniProt Q96F46, 33-866: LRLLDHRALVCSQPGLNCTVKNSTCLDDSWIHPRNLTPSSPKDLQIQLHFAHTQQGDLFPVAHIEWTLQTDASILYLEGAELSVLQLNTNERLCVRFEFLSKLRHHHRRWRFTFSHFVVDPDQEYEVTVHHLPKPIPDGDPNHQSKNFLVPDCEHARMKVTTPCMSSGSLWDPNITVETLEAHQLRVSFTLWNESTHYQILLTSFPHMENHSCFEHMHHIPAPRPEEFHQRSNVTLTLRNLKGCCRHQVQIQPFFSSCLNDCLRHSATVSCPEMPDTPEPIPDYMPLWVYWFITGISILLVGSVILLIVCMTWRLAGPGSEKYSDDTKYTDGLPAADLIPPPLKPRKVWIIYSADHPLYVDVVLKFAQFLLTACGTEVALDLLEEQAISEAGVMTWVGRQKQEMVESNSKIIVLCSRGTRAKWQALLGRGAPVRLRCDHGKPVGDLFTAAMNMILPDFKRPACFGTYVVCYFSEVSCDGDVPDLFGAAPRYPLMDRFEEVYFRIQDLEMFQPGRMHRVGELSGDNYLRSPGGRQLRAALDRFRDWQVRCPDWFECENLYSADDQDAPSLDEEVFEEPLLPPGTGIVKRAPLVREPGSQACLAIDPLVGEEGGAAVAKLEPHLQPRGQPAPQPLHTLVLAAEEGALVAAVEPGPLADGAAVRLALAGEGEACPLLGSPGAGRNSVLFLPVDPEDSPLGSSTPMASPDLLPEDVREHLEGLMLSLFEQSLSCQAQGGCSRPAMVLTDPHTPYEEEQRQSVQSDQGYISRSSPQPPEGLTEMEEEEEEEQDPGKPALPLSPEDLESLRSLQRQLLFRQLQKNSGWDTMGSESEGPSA
UniProt P01375, 77-233 limits assumed: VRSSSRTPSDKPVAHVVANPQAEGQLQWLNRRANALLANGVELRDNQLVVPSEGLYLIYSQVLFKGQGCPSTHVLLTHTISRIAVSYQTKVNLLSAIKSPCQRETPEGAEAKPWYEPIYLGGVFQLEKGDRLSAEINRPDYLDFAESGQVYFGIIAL
UniProt Q96PD4, 31-163 C47S/C137S: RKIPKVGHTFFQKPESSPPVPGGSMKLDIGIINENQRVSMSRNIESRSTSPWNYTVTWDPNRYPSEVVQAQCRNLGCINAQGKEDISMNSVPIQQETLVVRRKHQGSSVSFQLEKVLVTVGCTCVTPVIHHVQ

Legend:
human IL-17A = target: T1, human IL-17A (Homo sapiens, UniProt Q16552); assay: BJ human fibroblast cell assay, IL-17A stimulated GRO-α production; assay type: cell-based; conditions: BJ human fibroblast cells, 1 ng/ml human IL-17A
T1 construct: host or cells: added to BJ human fibroblasts (ATCC CRL2522)

mouse IL-17A = target: T2, mouse IL-17A (Mus musculus, UniProt Q62386); assay: SPR binding to immobilized mouse IL-17A
T2 construct: purchased Cell Signaling
T2 sequence (Q62386 26-158): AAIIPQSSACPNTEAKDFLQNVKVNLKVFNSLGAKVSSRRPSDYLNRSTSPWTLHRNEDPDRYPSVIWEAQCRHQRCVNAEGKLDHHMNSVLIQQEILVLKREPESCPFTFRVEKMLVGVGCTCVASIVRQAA

IL-17RA = IL-17RA (Homo sapiens, UniProt Q96F46); assay: SPR binding to immobilized IL-17RA; conditions: concentrations up to 100 nM
TNF-α [1] = target: T3, TNF-α (Homo sapiens, UniProt P01375); assay: Primary human keratinocytes stimulated by TNF-α alone, baseline cytokine production; assay type: cell-based; conditions: 10 ng/ml TNF-α alone, listed as HAP
T3 construct: purchased Sigma-Aldrich, St Louis, MO
Method: Figure 1 Binding of HAP to IL-17A and inhibition of IL-17A/IL-17RA are measured by SPR, FRET and cell-based assays. (A) Typical SPR sensorgrams (black) of HAP at indicated concentrations binding to biotinylated human IL-17A immobilized on a streptavidin chip surface, fitted with single site binding model curves (red). Kinetic parameters (ka, kd) were obtained by a global fit using three concentrations in triplicate. KD determined by the standard equation, KD = kd/ka. (B) HAP inhibits SPR signaling of IL-17A binding to immobilized IL-17RA. Data are mean and error bars of +/− standard deviation of three measurements. (C) Inhibition of IL-17A and IL-17RA binding by HAP measured by FRET assay. Data are mean and error bars of +/− standard deviation from 299 experiments, each performed in duplicate. […] Data are mean and error bars of +/− standard deviation of duplicated experiments. […]; (C) HAP: 0.8(+/-0.2) nM DOUBTS OF THE COPYIST ABOUT THIS PICTURE: Panel A prints no substance label of its own (only 'IL17A - 3200 RU'); […]
While either IL-17A or TNF-α alone can stimulate the release of multiple inflammatory cytokines, when acting together they can synergistically enhance each other’s effects (Supplementary Figure S5). These integrative responses to IL-17A and TNF-α in human keratinocytes have been reported to account for key inflammatory pathogenic circuits in psoriasis. […]

TNF-α [2] = target: T3, TNF-α; assay: BJ human fibroblast, TNF-α stimulated IL-6 production; assay type: cell-based; conditions: 10 ng/ml TNF-α, concentrations up to 10 μM
Method: Figure S2. Inhibition of IL-17Ainduced IL-6 production by HAP in BJ
fibroblasts. BJ cells were cultured in the presence of TNF-α (10ng/ml) or IL-
17A (1 ng/ml) with a series of concentration of HAPfor 24 hours after which
time cell culture supernatants were removed for analysis of IL-6 production.It
(1 picture or pasted object on this page, not shown here)

human IL-17F homodimer = human IL-17F homodimer (Homo sapiens, UniProt Q96PD4, C137S/C47S); conditions: SPR, concentrations up to 100 nM

| Compound | Cell IC50 (human IL-17A) | pIC50 (human IL-17A) | weaker affinity for mouse IL-17A versus human IL-17A (mouse IL-17A) | binding to immobilized IL-17RA (IL-17RA) | inhibition of baseline IL-8, IL-6 and CCL-20 production (TNF-α [1]) | inhibition of TNF-α stimulated IL-6 production (TNF-α [2]) | binding to immobilized human IL-17F homodimer (human IL-17F homodimer) |
| --- | --- | --- | --- | --- | --- | --- | --- |
| CC[C@H](C)[C@H](NC(=O)[C@H](Cc1c[nH]c2ccccc12)NC(=O)[C@H](CC(=O)O)NC(=O)[C@H](Cc1c[nH]c2ccccc12)NC(=O)[C@H](CC(C)C)NC(=O)[C@H](CC(=O)O)NC(=O)[C@H](C)NC(=O)[C@@H]1CCCN1C(=O)[C@@H](NC(=O)[C@@H](NC(=O)[C@@H](NC(C)=O)C(C)C)[C@@H](C)O)[C@@H](C)CC)C(=O)N[C@@H](CC(N)=O)C(=O)N[C@@H](CCCCN)C(N)=O [Compound 33] | completely abolishes | < 6.00 |  |  |  |  |  |
| CC[C@H](C)[C@H](NC(C)=O)C(=O)N[C@H](C(=O)N[C@H](C(=O)N[C@H](C(=O)N[C@H](C(=O)N1CCC[C@H]1C(=O)N[C@@H](C)C(=O)N[C@@H](CC(=O)O)C(=O)N[C@@H](CC(C)C)C(=O)N[C@@H](Cc1c[nH]c2ccccc12)C(=O)N[C@@H](CC(=O)O)C(=O)N[C@@H](Cc1c[nH]c2ccccc12)C(=O)N[C@H](C(=O)N[C@@H](CC(N)=O)C(=O)N[C@@H](CCCCN(C)C)C(N)=O)[C@@H](C)CC)[C@@H](C)CC)[C@@H](C)O)C(C)C)[C@@H](C)O [Compound 38] | comparable in activity with HAP | 7.92 |  |  |  |  |  |
| CC[C@H](C)[C@H](NC(C)=O)C(=O)N[C@@H](Cc1c[nH]cn1)C(=O)N[C@H](C(=O)N[C@H](C(=O)N[C@H](C(=O)N1CCC[C@H]1C(=O)N[C@@H](C)C(=O)N[C@@H](CC(=O)O)C(=O)N[C@@H](CC(C)C)C(=O)N[C@@H](Cc1c[nH]c2ccccc12)C(=O)N[C@@H](CC(=O)O)C(=O)N[C@@H](Cc1c[nH]c2ccccc12)C(N)=O)[C@@H](C)CC)[C@@H](C)O)C(C)C [Compound 37] | no longer active | < 6.00 |  |  |  |  |  |
| CC[C@H](C)[C@H](NC(=O)[C@H](Cc1c[nH]c2ccccc12)NC(=O)[C@H](CC(=O)O)NC(=O)[C@H](Cc1c[nH]c2ccccc12)NC(=O)[C@H](CC(C)C)NC(=O)[C@H](CC(=O)O)NC(=O)[C@H](C)NC(=O)[C@@H]1CCCN1C(=O)[C@@H](NC(=O)[C@@H](NC(=O)[C@@H](NC(=O)[C@H](Cc1c[nH]cn1)NC(C)=O)C(C)C)[C@@H](C)O)[C@@H](C)CC)C(=O)N[C@@H](CC(N)=O)C(=O)N[C@@H](CCCCN)C(N)=O [Compound 32] | completely abolishes | < 6.00 |  |  |  |  |  |
| CC[C@H](C)[C@H](NC(C)=O)C(=O)N[C@@H](Cc1c[nH]cn1)C(=O)N[C@H](C(=O)N[C@H](C(=O)N[C@H](C(=O)N1CCC[C@H]1C(=O)N[C@@H](C)C(=O)N[C@@H](CC(=O)O)C(=O)N[C@@H](CC(C)C)C(=O)N[C@@H](Cc1c[nH]c2ccccc12)C(=O)N[C@@H](CC(=O)O)C(=O)N[C@@H](Cc1c[nH]c2ccccc12)C(=O)N[C@H](C(=O)N[C@@H](CC(N)=O)C(=O)N[C@@H](CCCCN)C(N)=O)[C@@H](C)CC)[C@@H](C)CC)[C@@H](C)O)C(C)C [Compound 30] |  |  | > 10 fold | does not show significant binding | does not inhibit; also recorded: not inhibited | does not inhibit | does not show significant binding |
